System: remifentanil self-administration (lever presses) in Sprague-Dawley rats
Experiment: Acquisition of conditioned response remifentanil self-administration behavior in rats

SMILES: O=C(NCc1ccc(-c2ccn(COP(=O)(O)O)c(=O)c2)cc1)c1c(Cl)cccc1Cl [compound (2), phosphoric acid mono-(4-{4-[(2,6-dichloro-benzoylamino)-methyl]-phenyl}-2-oxo-2H-pyridin-1-ylmethyl) ester]
- dose response in preventing the acquisition of conditioned response behavior (rat model, oral doses 9-72 mg/kg): positive dose response
- lever presses (remifentanil infusions) vs vehicle (rats, 36 mg/kg oral, 2 h before each session, days 1-5 of training): statistically significant decreases
- lever presses (remifentanil infusions) vs vehicle (rats, 36 mg/kg oral, days 6-10 of training): but not 6-10
- lever presses (remifentanil infusions) vs vehicle (rats, 72 mg/kg oral, days 1-5 of training): statistically significant decreases
- lever presses (remifentanil infusions) vs vehicle (rats, 72 mg/kg oral, days 6-10 of training): but not 6-10
- cue-induced lever pressing after one-week abstinence (rats, re-exposure to light and tone cues only, no drug, data not shown): No difference was observed between groups

Reference: patent US20200237789A1, “COMBINATION THERAPY FOR PREVENTING ADDICTION” (Amygdala Neurosciences, Inc., priority 2017, published 2020)
